The series in a line: Mortality, body weight and safety in tumor mice models. As to conditions: SC injection in new formulation (1% poloxamer, 9% lactose). It counts as in vivo, athymic nude mice. The procedure:
• 1. Mortality—every day • 2. Tumor measurements—twice a week • 3. Tumor weight post mortem • 4. Tissue preservation—kept in formalin or were snap freezed and kept at −80° C.
The first day of the study was defined as ‘Day 1’. The animals were administrated IP with either Vehicle (PBS or Formulation), lentiviral particles and SC with test items according to Table 27 on days 1, 4, 8 and 11. Body weight and tumor volume were checked on days 3, 7, 11, 14 and 17 (the latter was measured with a caliper). At the end of the experiment, on day 17, the mice were anesthetized and then sacrificed, and the tumors were removed, as well as lung, spleen, kidney and liver.

Take WTAVQMAVFIHNFKRK [INS]: the “Safety and efficacy of SC injection” value is “both safe and effective”.

(Values after patent US20220233652A1, “Pharmaceutical Compositions Comprising Integration-Promoting Peptides” (priority 2018, published 2022).)
